Measured values taken from article PMC12195256, “Binding and Activating of Analgesic Crotalphine with Human TRPA1” (Membranes, 2025).
pKd: −log10 of the molar value. Entries after “also recorded” stand apart in the source; their conditions may differ.

Amino acid sequences for entries named in this document (tags omitted).
UniProt O75762, whole entry C641S: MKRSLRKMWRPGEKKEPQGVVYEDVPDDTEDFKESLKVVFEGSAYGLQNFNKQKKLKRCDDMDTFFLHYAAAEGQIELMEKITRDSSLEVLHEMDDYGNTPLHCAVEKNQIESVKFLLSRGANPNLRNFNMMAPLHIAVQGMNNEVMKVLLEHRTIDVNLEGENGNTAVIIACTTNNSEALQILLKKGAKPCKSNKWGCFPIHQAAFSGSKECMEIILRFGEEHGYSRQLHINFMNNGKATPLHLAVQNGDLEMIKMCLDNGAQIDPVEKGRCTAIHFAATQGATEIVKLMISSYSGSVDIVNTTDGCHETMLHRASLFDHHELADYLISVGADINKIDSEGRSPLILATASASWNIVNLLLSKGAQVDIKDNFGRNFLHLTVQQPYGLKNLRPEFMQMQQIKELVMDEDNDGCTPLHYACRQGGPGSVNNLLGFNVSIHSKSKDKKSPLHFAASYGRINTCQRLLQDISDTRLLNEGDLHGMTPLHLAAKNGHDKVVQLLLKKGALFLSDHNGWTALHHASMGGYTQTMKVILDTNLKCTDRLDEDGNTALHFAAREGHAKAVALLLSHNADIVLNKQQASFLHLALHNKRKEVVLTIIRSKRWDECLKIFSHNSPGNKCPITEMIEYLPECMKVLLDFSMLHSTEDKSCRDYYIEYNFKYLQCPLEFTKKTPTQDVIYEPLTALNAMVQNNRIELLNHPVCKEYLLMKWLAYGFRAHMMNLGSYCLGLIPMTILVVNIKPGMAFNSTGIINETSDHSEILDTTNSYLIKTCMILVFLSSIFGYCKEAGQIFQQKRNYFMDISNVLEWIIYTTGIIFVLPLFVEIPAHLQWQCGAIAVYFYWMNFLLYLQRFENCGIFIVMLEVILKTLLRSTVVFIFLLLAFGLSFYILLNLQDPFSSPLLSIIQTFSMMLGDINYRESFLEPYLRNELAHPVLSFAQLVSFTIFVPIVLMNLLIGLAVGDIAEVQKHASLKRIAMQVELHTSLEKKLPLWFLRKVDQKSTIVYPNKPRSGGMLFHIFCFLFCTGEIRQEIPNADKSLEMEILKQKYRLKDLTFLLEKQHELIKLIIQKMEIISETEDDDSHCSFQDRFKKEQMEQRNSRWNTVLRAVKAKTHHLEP
UniProt O75762, whole entry C665S: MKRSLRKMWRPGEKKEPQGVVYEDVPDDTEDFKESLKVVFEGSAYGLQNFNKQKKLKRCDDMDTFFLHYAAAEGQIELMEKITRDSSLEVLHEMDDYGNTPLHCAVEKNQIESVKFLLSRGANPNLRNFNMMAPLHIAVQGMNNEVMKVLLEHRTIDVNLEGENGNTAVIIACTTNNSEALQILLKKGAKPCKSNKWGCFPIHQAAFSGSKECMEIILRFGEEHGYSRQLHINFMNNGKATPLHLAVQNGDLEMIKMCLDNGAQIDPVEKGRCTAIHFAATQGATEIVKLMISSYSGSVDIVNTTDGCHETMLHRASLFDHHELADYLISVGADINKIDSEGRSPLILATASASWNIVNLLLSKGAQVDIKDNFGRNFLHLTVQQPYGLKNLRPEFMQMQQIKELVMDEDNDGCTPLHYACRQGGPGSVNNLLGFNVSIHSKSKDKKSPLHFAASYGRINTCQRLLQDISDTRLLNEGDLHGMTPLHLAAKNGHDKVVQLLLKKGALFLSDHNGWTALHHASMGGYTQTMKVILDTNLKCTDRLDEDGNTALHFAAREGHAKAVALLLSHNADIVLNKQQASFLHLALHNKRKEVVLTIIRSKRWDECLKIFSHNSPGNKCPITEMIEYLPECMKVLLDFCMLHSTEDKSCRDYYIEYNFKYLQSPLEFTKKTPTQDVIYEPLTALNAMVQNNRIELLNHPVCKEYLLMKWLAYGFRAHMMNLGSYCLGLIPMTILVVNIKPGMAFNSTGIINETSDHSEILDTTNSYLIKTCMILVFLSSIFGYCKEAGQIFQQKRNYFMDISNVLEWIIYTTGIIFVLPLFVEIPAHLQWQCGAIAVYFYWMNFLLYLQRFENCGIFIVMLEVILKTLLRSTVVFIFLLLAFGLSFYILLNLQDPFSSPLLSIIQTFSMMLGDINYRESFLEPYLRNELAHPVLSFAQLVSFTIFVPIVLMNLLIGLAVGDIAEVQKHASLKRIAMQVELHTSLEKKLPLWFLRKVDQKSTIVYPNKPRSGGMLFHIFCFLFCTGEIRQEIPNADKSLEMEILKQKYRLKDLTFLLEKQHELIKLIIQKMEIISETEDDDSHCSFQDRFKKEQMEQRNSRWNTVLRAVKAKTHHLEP
UniProt O75762, whole entry C621S: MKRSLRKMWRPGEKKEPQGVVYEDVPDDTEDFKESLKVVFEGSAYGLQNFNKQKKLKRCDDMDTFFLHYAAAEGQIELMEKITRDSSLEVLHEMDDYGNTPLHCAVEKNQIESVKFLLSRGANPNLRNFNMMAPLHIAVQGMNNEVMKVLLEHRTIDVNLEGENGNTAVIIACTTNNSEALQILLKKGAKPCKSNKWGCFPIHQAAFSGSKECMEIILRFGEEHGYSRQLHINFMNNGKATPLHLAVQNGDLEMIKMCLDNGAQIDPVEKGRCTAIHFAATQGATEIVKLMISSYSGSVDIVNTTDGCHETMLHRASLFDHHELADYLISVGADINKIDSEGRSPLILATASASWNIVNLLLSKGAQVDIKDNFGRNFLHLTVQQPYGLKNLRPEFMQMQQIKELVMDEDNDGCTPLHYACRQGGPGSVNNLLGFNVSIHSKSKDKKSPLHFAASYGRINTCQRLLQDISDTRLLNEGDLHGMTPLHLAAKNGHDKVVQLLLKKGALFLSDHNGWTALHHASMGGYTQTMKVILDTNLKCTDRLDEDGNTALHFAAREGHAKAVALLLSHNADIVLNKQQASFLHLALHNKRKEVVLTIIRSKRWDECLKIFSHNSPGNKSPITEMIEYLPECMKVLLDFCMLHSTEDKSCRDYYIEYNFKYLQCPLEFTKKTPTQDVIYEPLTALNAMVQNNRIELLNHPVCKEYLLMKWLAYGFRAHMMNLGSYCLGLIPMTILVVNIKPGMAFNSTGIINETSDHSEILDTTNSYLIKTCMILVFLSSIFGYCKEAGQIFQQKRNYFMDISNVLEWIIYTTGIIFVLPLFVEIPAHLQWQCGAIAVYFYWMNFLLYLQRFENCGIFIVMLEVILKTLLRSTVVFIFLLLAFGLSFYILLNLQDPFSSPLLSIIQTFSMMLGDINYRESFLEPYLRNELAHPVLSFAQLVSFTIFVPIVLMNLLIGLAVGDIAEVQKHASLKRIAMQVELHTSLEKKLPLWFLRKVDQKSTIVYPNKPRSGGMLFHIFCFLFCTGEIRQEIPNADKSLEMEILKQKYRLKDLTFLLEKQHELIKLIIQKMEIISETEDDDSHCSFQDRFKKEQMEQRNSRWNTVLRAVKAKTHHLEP

Legend:
[1] = target: T1, hTRPA1 C641S mutant (GFP-tagged) (Homo sapiens, UniProt O75762, C641S); assay: MST binding of crotalphine to TRPA1 C641S
T1 construct: Full-length human TRPA1 protein was expressed in HEK293F cells and purified to homogeneity; twin-Strep (C); made in house; host or cells: HEK293F cells (BacMam baculovirus amplified in SF9)
Description: (§1) The equilibrium dissociation constant (Kd) value of crotalphine with respect to the wild-type and mutant of hTRPA1 was determined using the Monolith NT.115 instrument produced by NanoTemper (Munich, Germany). First, 10 μL of the target protein with a concentration of 50 nM and an equal volume of crotalphine with an initial concentration of 4 μM were incubated on ice for 5 min. Then, the incubated sample was loaded into capillaries and placed into the instrument for the assessment of the binding affinity. Due to the EGFP fluorescent tag on the protein sample, the nano-blue channel was directly chosen for measurement. The measurements were carried out at 22 °C with 10% LED power and medium MST power. The data were analyzed using Nano-Temper Analysis 2.3 software.

TRPA1 C641S mutant = assay: Whole-cell patch-clamp, TRPA1 C641S; format: cell-based, human; conditions: HEK 293T, 100 nM crotalphine, +120 mV, 25 °C, n = 9
Description: (§2) HEK 293T cells were transiently transfected with human TRPA1 (hTRPA1)-encoding plasmids. Twenty four hours after transfection, the GFP-positive cells were patch-clamped at room temperature (25 °C) with a HEKA EPC10 single patch clamp amplifier (HEKA, Lambrecht, Germany). The currents of TRPA1 were recorded in the whole cell. After obtaining electrical access, a 200 ms voltage ramp from −120 mV to +120 mV followed by a return to the holding potential of −80 mV was applied throughout all compound addition periods to measure the current of TRPA1. For analysis, the currents measured at +120 mV were used. Cell membrane capacitance was recorded directly from the amplifier following whole-cell access. Current density was calculated as the current amplitude divided by the cell membrane capacitance. The voltage protocol was applied every 10 s during the experimental recording period. The extracellular solution contained 137 mM NaCl, 4 mM KCl, 10 mM Glucose, 10 mM HEPES, 1 mM MgCl2, 2 mM CaCl2, pH 7.4. The intracellular medium consisted of 140 mM CsCl, 1 mM MgCl2, 10 mM HEPES, 5 mM EGTA, 2.6 mM CsCl, pH 7.2. All chemicals were of analytical grade.

[2] = target: T2, hTRPA1 C665S mutant (GFP-tagged) (Homo sapiens, UniProt O75762, C665S); assay: MST binding of crotalphine to TRPA1 C665S; conditions: 22 °C
T2 construct: Full-length human TRPA1 protein was expressed in HEK293F cells and purified to homogeneity; twin-Strep (C); made in house; host or cells: HEK293F cells (BacMam baculovirus amplified in SF9)
Description: as §1

TRPA1 C621S mutant = assay: Whole-cell patch-clamp, TRPA1 C621S; format: cell-based, human; conditions: HEK 293T, 100 nM crotalphine, +120 mV, 25 °C, n = 9
Description: as §2

[3] = target: T3, hTRPA1 C621S mutant (GFP-tagged) (Homo sapiens, UniProt O75762, C621S); assay: MST binding of crotalphine to TRPA1 C621S; conditions: 50 nM EGFP-tagged protein, crotalphine initial concentration 4 μM, 5 min on ice, 22 °C, compared with wild-type, Kd could not be determined
T3 construct: Full-length human TRPA1 protein was expressed in HEK293F cells and purified to homogeneity; twin-Strep (C); made in house; host or cells: HEK293F cells (BacMam baculovirus amplified in SF9)
Description: as §1

TRPA1 C665S mutant = assay: Whole-cell patch-clamp, TRPA1 C665S; format: cell-based, human; conditions: HEK 293T, 100 nM crotalphine, +120 mV, 25 °C, n = 9
Description: as §2

human TRPA1 (hTRPA1) = assay: Whole-cell patch-clamp, wild-type TRPA1; format: cell-based; conditions: HEK 293T cells transfected with hTRPA1, +120 mV, 25 °C
Description: as §2

TRPA1 ion channel = conditions: cited from earlier work
Source text: Importantly, the targeting of ... || The motion of transmembrane helices widens both the upper and lower gates of the ion permeation pathway. The upward movement and rotation of S6 expand the lower gate formed by residues I957 and V961. Simultaneously, the movement of the pore helices (P1 and P2) causes the upper gate, formed by residues G914 and D915 within the selectivity filter, to shift upward and dilate. […] Specifically, the pore diameter of the lower gate expands from 5.4 Å to 6.7 Å, while the ...

[4] = cited from earlier work
Source text: Importantly, the targeting of ...

NC(=O)CC[C@@H]1NC(=O)[C@@H](NC(=O)[C@H](CC(N)=O)NC(=O)[C@H](CCC(=O)O)NC(=O)[C@@H]2CCCN2C(=O)[C@H](CO)NC(=O)[C@H](Cc2ccccc2)NC(=O)[C@@H]2CCC(=O)N2)CSSC[C@@H](C(=O)O)NC(=O)[C@@H]2CCCN2C(=O)[C@H](CCC(N)=O)NC(=O)[C@H](CO)NC(=O)[C@H](CCC(=O)O)NC(=O)CNC1=O [crotalphine]
change of interaction with crotalphine versus wild-type, C641S ([1]; 22 °C): does not significantly alter the interaction with crotalphine
pKd ([1]; Monolith NT.115, 50 nM EGFP-tagged protein, crotalphine initial concentration 4 μM, 5 min on ice, measured at 22 °C, read-out: dissociation constant (Kd), C641S): 6.91
current response, C641S, versus wild-type (TRPA1 C641S mutant): current responses similar to those of the wild-type channel
change of interaction with crotalphine versus wild-type, C665S [2]: does not significantly alter the interaction with crotalphine
current upon crotalphine application, C621S (TRPA1 C621S mutant): no detectable currents; also recorded: significant reduction in crotalphine’s effect
interaction with crotalphine / Kd, C621S [3]: significantly weakened, to the extent that the dissociation constant (Kd) could not be determined
current response, C665S, versus wild-type (TRPA1 C665S mutant): current responses similar to those of the wild-type channel
agonist activity at TRPA1 (human TRPA1 (hTRPA1)): acts as an agonist of TRPA1
activation and desensitization of TRPA1 (TRPA1 ion channel; agonist): specifically activating and strongly desensitizing the TRPA1 ion channel
extent of TRPA1 activation (TRPA1 ion channel): partially activates TRPA1
antinociceptive effect [4]: effective and persistent antinociceptive effect
tolerance on repeated administration ([4]; repeated administration, unlike opioid drugs): does not induce tolerance
